Earlier results in patent US12195551B2, “Combination of an ErbB-2/ErbB-3 bispecific antibody with endocrine therapy for breast cancer” (Merus N.V., priority 2017, dated 2025).

Details: human, in vivo; cited from earlier work

In the case of “trastuzumab: anti-ErbB-2 monoclonal antibody that binds domain IV of ErbB-2”, the “patients who develop cardiac dysfunction” value is listed as 5-10% and the “risk for developing asymptomatic cardiac dysfunction” value is listed as “about 25%”.
